Results reported in PubChem BioAssay AID1325 (NMMLSC, 2008).
This is a selection; strong and weak results do not stand in their true shares. The source made the active and inactive calls.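 Rule for the calls: active = inhibition above 80%; inactive = the rest.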

Sequences of proteins named here, by UniProt entry; tags and fusion partners are left off.
UniProt Q9UNQ0, whole entry: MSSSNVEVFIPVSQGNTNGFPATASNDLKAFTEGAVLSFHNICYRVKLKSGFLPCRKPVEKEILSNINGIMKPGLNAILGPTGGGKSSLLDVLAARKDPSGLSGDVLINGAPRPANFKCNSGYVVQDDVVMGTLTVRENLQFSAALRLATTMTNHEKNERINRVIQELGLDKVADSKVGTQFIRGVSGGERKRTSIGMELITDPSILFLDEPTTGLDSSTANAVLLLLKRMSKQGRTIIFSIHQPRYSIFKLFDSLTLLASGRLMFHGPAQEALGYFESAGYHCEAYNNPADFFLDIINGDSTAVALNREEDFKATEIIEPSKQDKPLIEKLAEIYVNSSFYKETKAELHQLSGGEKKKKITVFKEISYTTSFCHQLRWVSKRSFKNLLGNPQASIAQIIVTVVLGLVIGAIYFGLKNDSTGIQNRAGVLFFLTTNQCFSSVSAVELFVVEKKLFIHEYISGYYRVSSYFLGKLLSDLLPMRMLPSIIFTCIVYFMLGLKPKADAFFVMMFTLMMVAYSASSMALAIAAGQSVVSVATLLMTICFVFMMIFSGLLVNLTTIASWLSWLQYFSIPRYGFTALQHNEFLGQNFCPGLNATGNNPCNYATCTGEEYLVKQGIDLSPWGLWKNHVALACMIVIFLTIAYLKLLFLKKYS

These molecules were tested against Broad substrate specificity ATP-binding cassette transporter ABCG2 (Homo sapiens) (UniProt Q9UNQ0) (assay: ABCG2 efflux pump inhibitors, primary screen, multiplex with ABCB1, IgMXP3 cells, flow cytometry (AID 1325;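 note: 0% = DMSO and 100% = nicardipine control wells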)). Settings: JC-1 efflux, at 6.6 µM, hits give high values.
`COc1ccc(NC2CCN(CCc3ccccc3)CC2)c(OC)c1` was tested, and the inhibition was inactive: 0.63%. In the case of `COc1ccc(C(=O)NCC2(N3CCCCC3)CCCCC2)c(OC)c1OC`, the inhibition is reported as inactive: 3.67%. `O=C(NCC1(N2CCOCC2)CCCCC1)c1cc2ccccc2o1` was tested, and the inhibition was inactive: 2.92%. In the case of `CCOC(=O)N1CCC(Nc2ccc(OC)cc2)CC1`, the inhibition is reported as inactive: 1.52%. With `O=C(OC1CN2CCC1CC2)C1c2ccccc2Oc2ccccc21` (stereo not given) the inhibition was inactive: 1.25%. `COc1ccc(CN(CCCl)CCCl)cc1Cl` was tested, and the inhibition was inactive: 7.54%. For `CN(C)c1cccc(C(=O)NCC2(N3CCCCC3)CCCCC2)c1`, the inhibition was inactive: -1.12%. In the case of `CC(C)c1ccc(NC2CCN(C(=O)OC(C)(C)C)CC2)cc1`, the inhibition is reported as inactive: 0.46%. With `O=C(NCC1(N2CCCCC2)CCCCC1)c1cccc([N+](=O)[O-])c1` the inhibition was inactive: 10.9%. `N#CC1(Nc2ccccc2)CCN(CCc2ccccc2)CC1` was tested, and the inhibition was inactive: 1.32%. In the case of `COc1ccc(NC2CCN(C(=O)OC(C)(C)C)CC2)cc1`, the inhibition is reported as inactive: 5.32%. For `CN1CCN(CCOC(=O)C(O)(c2ccccc2)c2ccccc2)CC1`, the inhibition was inactive: 1.86%. In the case of `O=C(NCC1(N2CCOCC2)CCCCC1)c1cc(=O)[nH]c2ccccc12`, the inhibition is reported as inactive: 2%. `N#Cc1ccc(C(=O)NCC2(N3CCCCC3)CCCCC2)cc1` was tested, and the inhibition was inactive: -0.63%. With `c1ccc(CN2CCC(Nc3ccccc3)CC2)cc1` the inhibition was inactive: 0.29%. `COc1ccc(C(=O)NCC2(N3CCOCC3)CCCCC2)cc1OC` was tested, and the inhibition was inactive: 5.3%. In the case of `N/C(=N\O)c1c(N)no[n+]1[O-]`, the inhibition is reported as inactive: 0.98%. With `O=C(OC1CN2CCC1CC2)C1c2ccccc2C=Cc2ccccc21` (stereo not given) the inhibition was inactive: -1.41%. For `CCOc1ncccc1C(=O)NCC1(N2CCOCC2)CCCCC1`, the inhibition was inactive: -0.01%. With `CC(C)(C)OC(=O)N1CCC(Nc2ccccc2)CC1` the inhibition was inactive: 1.68%. In the case of `CCC(CO)(C(=O)OC1CN2CCC1CC2)c1ccccc1` (stereo not given), the inhibition is reported as inactive: 1.39%. For `COc1cc(OC)cc(C(=O)NCC2(N3CCOCC3)CCCCC2)c1`, the inhibition was inactive: 4.03%. With `Fc1ccccc1NC1CCN(Cc2ccccc2)CC1` the inhibition was inactive: 1.49%. `CCN1CCC(Nc2cccc(F)c2)CC1` was tested, and the inhibition was inactive: 1.84%. In the case of `CN(C)c1ccc(C(=O)NCC2(N3CCCCC3)CCCCC2)cc1`, the inhibition is reported as inactive: 1.6%.
